Results: ChEMBL document CHEMBL2216751, “PI3Kδ and PI3Kγ as targets for autoimmune and inflammatory diseases” (J Med Chem, 2012)

Amino acid sequences for entries named in this document (tags omitted). A change or cut given only in a name is not applied to a line headed by its entry.
UniProt P42338: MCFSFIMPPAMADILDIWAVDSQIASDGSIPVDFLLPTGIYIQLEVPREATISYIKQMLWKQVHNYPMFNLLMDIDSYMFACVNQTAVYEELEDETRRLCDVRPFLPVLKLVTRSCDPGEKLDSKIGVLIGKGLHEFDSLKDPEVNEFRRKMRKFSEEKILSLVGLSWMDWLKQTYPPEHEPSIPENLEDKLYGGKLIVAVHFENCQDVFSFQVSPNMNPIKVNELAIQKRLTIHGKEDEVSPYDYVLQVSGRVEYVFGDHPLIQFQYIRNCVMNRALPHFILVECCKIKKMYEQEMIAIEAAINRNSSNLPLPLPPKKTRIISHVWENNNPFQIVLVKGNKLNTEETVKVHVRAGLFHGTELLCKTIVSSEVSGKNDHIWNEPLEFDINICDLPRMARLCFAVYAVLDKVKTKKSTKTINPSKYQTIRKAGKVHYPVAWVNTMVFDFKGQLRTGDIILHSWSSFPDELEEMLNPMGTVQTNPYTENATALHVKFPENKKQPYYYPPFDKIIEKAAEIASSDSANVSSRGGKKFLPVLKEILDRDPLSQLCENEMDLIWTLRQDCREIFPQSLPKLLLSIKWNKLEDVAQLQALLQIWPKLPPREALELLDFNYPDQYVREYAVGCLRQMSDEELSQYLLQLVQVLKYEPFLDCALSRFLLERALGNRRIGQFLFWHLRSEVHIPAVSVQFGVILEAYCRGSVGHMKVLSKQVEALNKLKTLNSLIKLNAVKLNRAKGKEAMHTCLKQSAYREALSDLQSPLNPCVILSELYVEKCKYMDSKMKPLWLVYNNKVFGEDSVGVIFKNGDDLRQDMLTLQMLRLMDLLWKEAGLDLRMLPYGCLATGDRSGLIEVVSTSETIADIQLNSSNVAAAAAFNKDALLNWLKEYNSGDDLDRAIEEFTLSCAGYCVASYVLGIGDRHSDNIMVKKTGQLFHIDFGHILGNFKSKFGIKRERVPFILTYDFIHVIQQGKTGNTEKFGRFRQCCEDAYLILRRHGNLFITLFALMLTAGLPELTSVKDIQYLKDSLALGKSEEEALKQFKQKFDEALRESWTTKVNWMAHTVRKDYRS

Key:
[1] = molecular target: Phosphatidylinositol 4,5-bisphosphate 3-kinase catalytic subunit beta isoform (Homo sapiens, UniProt P42338); test: Inhibition of PI3Kbeta using phosphatidylinositol as substrate by gamma33P[ATP] incorporation assay
[2] = molecular target: T1, Phosphatidylinositol 4,5-bisphosphate 3-kinase catalytic subunit delta isoform (Homo sapiens, UniProt O00329)
T1 sequence (O00329 whole entry): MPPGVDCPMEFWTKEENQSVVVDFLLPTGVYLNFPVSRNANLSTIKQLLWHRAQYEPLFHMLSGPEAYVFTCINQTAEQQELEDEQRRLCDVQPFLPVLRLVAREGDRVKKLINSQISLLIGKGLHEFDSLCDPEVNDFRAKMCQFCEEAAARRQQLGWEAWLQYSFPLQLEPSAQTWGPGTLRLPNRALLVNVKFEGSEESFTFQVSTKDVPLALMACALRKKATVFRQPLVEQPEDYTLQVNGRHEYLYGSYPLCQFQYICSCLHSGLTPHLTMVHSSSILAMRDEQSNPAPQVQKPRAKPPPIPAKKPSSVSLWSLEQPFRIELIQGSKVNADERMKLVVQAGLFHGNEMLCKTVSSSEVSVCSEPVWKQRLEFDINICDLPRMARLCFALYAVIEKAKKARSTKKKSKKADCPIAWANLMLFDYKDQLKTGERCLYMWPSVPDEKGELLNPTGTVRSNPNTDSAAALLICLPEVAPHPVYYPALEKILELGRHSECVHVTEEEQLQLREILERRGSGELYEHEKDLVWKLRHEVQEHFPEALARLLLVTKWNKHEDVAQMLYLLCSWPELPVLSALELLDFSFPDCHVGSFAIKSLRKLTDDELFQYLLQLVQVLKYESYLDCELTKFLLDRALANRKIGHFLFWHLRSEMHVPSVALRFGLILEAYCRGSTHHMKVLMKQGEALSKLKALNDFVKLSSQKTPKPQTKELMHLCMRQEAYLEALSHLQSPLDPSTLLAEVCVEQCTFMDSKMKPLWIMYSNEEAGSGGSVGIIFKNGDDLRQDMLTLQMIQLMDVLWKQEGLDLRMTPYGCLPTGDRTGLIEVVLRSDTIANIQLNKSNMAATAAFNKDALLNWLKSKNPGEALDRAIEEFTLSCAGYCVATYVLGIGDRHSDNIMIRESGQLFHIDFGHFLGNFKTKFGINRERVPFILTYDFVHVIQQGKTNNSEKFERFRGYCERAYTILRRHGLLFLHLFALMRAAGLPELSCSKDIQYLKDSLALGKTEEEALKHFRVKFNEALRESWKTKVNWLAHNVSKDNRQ

| IC50 [1] [nM] | IC50 [2] [nM] | SMILES |
| --- | --- | --- |
| 310 |  | O=c1cc(N2CCOCC2)oc2c(-c3ccccc3)cccc12 [LY-294002] |
|  | 0.3 | Cc1ccccc1-n1c(Cn2nc(-c3cc(O)cc(F)c3)c3c(N)ncnc32)cc2cccc(C)c2c1=O |
|  | < 100 | CC(=O)Nc1nc2ccc(-c3nn(Cc4cc5cccc(C)c5c(=O)n4-c4ccccc4C)c4ncnc(N)c34)cc2s1 |
